The values below come from ChEMBL document CHEMBL5230104, “Systemic review on B-RafV600E mutation as potential therapeutic target for the treatment of cancer” (Eur J Med Chem, 2020).

Sequences of proteins named here, by UniProt entry; tags and fusion partners are left off. Residues count along the entry.
UniProt P15056, 2-766 V600E limits assumed: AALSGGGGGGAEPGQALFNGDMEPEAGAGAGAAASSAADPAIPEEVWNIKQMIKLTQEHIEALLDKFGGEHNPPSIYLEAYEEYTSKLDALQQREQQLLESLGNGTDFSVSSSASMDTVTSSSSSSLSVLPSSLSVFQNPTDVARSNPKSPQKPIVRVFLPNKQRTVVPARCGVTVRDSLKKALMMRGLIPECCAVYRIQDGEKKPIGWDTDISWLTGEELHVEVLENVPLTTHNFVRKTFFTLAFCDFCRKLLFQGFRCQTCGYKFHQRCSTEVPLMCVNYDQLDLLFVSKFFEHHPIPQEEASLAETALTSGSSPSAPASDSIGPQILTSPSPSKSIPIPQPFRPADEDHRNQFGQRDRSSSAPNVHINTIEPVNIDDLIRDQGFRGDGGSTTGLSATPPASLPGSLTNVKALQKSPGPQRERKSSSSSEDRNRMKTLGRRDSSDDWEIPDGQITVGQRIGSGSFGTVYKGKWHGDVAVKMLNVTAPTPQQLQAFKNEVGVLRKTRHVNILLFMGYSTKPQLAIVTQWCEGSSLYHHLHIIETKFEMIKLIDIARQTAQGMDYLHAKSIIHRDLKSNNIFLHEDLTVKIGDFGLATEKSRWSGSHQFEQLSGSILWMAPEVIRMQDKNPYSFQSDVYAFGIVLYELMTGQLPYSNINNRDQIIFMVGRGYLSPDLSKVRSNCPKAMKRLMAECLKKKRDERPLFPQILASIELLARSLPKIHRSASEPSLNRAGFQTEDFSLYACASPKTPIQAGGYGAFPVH
UniProt P15056, 2-766 limits assumed: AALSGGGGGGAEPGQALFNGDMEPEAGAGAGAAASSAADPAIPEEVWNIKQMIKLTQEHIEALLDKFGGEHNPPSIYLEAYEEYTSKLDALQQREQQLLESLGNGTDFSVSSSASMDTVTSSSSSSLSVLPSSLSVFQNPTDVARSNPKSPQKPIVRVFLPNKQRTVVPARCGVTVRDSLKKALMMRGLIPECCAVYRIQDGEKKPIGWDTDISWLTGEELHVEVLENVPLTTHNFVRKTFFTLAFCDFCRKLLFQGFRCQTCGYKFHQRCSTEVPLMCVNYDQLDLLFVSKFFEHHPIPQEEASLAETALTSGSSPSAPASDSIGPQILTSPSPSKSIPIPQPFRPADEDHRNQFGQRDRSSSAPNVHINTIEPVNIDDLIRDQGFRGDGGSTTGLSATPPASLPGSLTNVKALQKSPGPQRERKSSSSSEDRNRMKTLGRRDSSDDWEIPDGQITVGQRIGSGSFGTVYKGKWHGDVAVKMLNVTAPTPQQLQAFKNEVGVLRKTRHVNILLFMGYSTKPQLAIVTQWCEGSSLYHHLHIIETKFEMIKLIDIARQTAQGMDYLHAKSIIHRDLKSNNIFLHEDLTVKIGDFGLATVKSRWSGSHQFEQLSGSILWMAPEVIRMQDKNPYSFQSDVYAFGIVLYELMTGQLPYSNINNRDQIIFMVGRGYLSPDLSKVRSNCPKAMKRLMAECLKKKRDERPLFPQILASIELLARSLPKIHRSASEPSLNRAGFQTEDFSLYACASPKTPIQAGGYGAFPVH

In experiment [1] the target is Serine/threonine-protein kinase B-raf (Homo sapiens, UniProt P15056, V600E). The experiment is described as follows: Inhibition of B-Raf V600E mutant (unknown origin) incubated for 120 mins in presence of ATP by ADP-Glo luminescence assay.
Experiment [2] deals with Serine/threonine-protein kinase B-raf (Homo sapiens, UniProt P15056). The experiment is described as follows: Inhibition of wild type B-Raf (unknown origin) incubated for 120 mins in presence of ATP by ADP-Glo luminescence assay. For orientation: ADP-Glo first removes unused ATP, then detects ADP through luciferase.

In the case of `CC(=O)Nc1cc(-c2sc(C3CCN(C4CC4)CC3)nc2-c2cccc(NS(=O)(=O)c3cc(F)ccc3F)c2F)ccn1`, the figures for the IC50 in experiment [1] and in experiment [2] were 3.7 nM and 4.8 nM, respectively.

A word on the IC50: it is the concentration that gives 50% inhibition.
